Drawing on PubChem BioAssay AID485317 (Broad Institute, 2010), this text covers inhibition for one molecule.

Amino acid sequences for entries named in this document (tags omitted).
UniProt P55789, whole entry: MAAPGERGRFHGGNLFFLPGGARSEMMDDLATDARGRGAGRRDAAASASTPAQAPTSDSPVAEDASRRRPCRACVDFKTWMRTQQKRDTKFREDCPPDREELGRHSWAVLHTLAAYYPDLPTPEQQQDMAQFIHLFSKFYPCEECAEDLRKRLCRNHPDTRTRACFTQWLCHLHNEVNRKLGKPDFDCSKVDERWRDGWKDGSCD

Only a part is listed here, and it is no random draw. Active and inactive are the calls of the source.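 Rule for the calls: active = mean replicate inhibition above about 79%, with every replicate also reaching it (limit read from the data); inconclusive = only one of the two criteria met; inactive = mean below limit and not every replicate reaching it.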

For the test, the target named is FAD-linked sulfhydryl oxidase ALR (Homo sapiens) (UniProt P55789). In words: inhibitors of human ALR sulfhydryl oxidase, primary screen, biochemical, H2O2 detection, HRP-luminol luminescence, single point (AID 485317). The settings on record: purified ALR, DTT oxidation, active compounds read high, concentration not given here.
As for `CN(C(=O)Cc1ccc(Cl)c(Cl)c1)[C@H]1CCCC[C@@H]1N1CCCC1`, the inhibition is inactive: -18.3%.

The term inhibition denotes the relative decrease from the control value, in per cent.
